One substance from US7807654B2, “Compositions and methods for treatment of mitochondrial diseases” (Wellstat Therapeutics Corporation, priority 1998, dated 2010) can be followed below.

In this test the test system is mice infused with sodium azide. Put plainly: Subcutaneous azide infusion: mortality, body weight, TUNEL staining. To be noted: 6% TAU or chow (data not shown). The test is classed as in vivo, C57/BL/6N mice.

In the case of sodium azide, the “mortality due to 60 μg/hr azide infusion” value turned out to be 60%.
